In test [1] the target is T1, Serine/threonine-protein kinase Chk1 (Homo sapiens) (UniProt O14757).
T1 sequence (whole entry): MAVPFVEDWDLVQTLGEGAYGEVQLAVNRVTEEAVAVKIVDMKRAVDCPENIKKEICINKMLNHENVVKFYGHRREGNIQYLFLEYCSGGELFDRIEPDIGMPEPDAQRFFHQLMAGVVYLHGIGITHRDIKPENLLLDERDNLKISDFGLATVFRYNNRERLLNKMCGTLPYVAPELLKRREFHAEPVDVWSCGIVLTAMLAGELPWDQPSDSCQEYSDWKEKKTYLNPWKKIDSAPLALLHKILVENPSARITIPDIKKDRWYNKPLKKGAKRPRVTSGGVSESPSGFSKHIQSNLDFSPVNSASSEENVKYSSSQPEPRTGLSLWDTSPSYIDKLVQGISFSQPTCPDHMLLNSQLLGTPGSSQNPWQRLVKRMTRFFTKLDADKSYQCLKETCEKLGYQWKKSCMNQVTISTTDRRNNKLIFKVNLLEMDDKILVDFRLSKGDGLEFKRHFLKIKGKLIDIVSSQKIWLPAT
The conditions noted are these: HT-29, 10 uM.

The target in test [2] is T1, Serine/threonine-protein kinase Chk1 (Homo sapiens). The conditions noted are these: HT-29, 1 uM.

As for `Fc1ccc(Nc2nc(N3CCOCC3)c3nc[nH]c3n2)cc1`, the RatioGI50 turned out to be 7 in test [1] and 1.9 in test [2].

Values taken from ChEMBL document CHEMBL4152229, “Synthesis and biological evaluation of 2,6-disubstituted-9H-purine, 2,4-disubstitued-thieno[3,2-d]pyrimidine and -7H-pyrrolo[2,3-d]pyrimidine analogues as novel CHK1 inhibitors” (Eur J Med Chem, 2018).
